The test system of the data set is human red blood cells (hRBCs). In words: Hemolytic activity. Type of data set: cell-based. As to conditions: 8.9 mg/L, 37° C., one hour. How it is done: In the hemolysis assay, human RBCs were incubated with serially-diluted doses (0 to 460 mg/L) of D-HBcARD, L-HBcARD, or melittin, at 37° C. for one hour.
The hemolytic activities of peptides were determined by hemolysis against human red blood cells (hRBCs). Human blood was obtained in EDTA-containing tube and was centrifuged at 450 g for 10 min. The pellet was washed three times with PBS buffer, and a solution of 10% hRBCs was prepared. hRBCs solution was mixed with serial dilutions of peptides in PBS buffer, and the reaction mixtures were incubated for 1 h at 37° C. After centrifugation at 450 g for 10 min, the percentage of hemolysis was determined by measuring the absorbance at the wavelength of 405 nm of the supernatant. Blank and 100% hemolysis were determined in PBS buffer and in the presence of 1% Triton X-100, respectively.

For `CC[C@H](C)[C@H](NC(=O)CN)C(=O)NCC(=O)N[C@@H](C)C(=O)N[C@H](C(=O)N[C@@H](CC(C)C)C(=O)N[C@@H](CCCCN)C(=O)N[C@H](C(=O)N[C@@H](CC(C)C)C(=O)N[C@H](C(=O)N[C@H](C(=O)NCC(=O)N[C@@H](CC(C)C)C(=O)N1CCC[C@H]1C(=O)N[C@@H](C)C(=O)N[C@@H](CC(C)C)C(=O)N[C@H](C(=O)N[C@@H](CO)C(=O)N[C@@H](Cc1c[nH]c2ccccc12)C(=O)N[C@H](C(=O)N[C@@H](CCCCN)C(=O)N[C@@H](CCCNC(=N)N)C(=O)N[C@@H](CCCCN)C(=O)N[C@@H](CCCNC(=N)N)C(=O)N[C@@H](CCC(N)=O)C(=O)N[C@@H](CCC(N)=O)C(N)=O)[C@@H](C)CC)[C@@H](C)CC)[C@@H](C)O)[C@@H](C)O)C(C)C)C(C)C` [melittin, reference compound], the “hemolysis (percentage of Triton X-100-induced hemolysis)” value worked out at 100%.

Source of the values: patent publication US12084479B2, “Modified antimicrobial peptide derived from an arginine-rich domain” (priority 2016, dated 2024).
